Laboratory results reported in patent US20170052177A1, “COMPETITION ASSAY” (PharmaDiagnostics NV, priority 2014, published 2017).

Chains of the proteins cited; added tags and fusions are not shown.
UniProt Q00987, whole entry, species assumed: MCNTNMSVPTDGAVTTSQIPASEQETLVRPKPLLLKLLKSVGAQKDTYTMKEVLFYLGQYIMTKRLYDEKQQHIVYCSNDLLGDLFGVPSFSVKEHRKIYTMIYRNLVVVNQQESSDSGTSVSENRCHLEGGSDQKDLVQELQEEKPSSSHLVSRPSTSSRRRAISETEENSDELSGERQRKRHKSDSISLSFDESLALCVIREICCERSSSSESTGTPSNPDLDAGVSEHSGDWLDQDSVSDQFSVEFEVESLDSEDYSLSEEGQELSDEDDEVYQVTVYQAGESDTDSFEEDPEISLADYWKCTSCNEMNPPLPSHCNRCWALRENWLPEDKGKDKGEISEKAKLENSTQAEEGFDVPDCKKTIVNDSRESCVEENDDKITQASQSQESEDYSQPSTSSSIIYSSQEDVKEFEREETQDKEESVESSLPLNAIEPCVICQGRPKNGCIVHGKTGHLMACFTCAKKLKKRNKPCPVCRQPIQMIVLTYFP

Target: MDM2 (Homo sapiens, UniProt Q00987)
Experiment: LSPR competition assay: MDM2 pre-incubated with nutlin-3 or p53, then p53-GNR conjugate
Format: binding

ΔRU as a function of the added amount of nutlin-3 and p53 (fixed MDM2, p53-GNR conjugate, increasing concentration of added compound (FIGS. 4A and 4B)): ΔRU decreases | relative affinity to MDM2 (from concentration needed for significant reduction of ΔRU (FIGS. 4A and 4B)): much higher affinity to MDM2 than p53
SMILES: COc1ccc(C2=N[C@@H](c3ccc(Cl)cc3)[C@@H](c3ccc(Cl)cc3)N2C(=O)N2CCNC(=O)C2)c(OC(C)C)c1 [nutlin-3]
